Screening results as filed in PubChem.
E-sel inducer: E-selectin induction on HUVECs; P16581; HUVEC E-selectin immunofluorescence imaging; normalized: neutral wells 0, TNF-alpha wells 100; activation, % at 7.58 µM; 0.37% of 260,000 active;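 active means mean E-selectin-positive cell signal at least 10% of the positive control, reached in at least 60% of replicates, without over 20% cell loss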
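Assay system: HUVEC primary endothelial cells. Input: 3,000 HUVEC seeded per well. Doses: one compound dose added by pin transfer. Read-out basis: % PE-positive cells. Benchmarks: TNF-alpha high, DMSO low. Detection: immunofluorescence imaging. Buffer or medium: EGM-2, gelatin.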
Yeast UUG start: modulators of start codon recognition fidelity in yeast. activity score, % at 18.7 µM. S. cerevisiae UUG-firefly luciferase reporter, luminescence/redox ratio. 350,000 compounds, 0.13% hits;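 active means replicate mean at a twofold rise or more, about +100% in these data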;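 further: firefly luciferase made from a UUG start codon reports start codon fidelity; reporter light over untreated wells divided by growth signal over untreated wells; some hits fall short of that in this replicate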
RAD52 inh: blocks human RAD52 DNA annealing; P43351; recombinant RAD52 DNA annealing, FRET fluorescence; inhibition, % at 18.7 µM; 0.46% of 360,000 active; AID 651710;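 active means every replicate showing at least 50% inhibition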
Xi reactivation: X-chromosome reactivation activator. XiGFP mouse fibroblasts, % GFP-positive cells imaging, 3 d; cells co-treated with 5-aza-dC sensitizer; scaled so ellipticine positive control = 100%. activation, % at 7.58 µM. 0.055% of 360,000 active;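 active means mean normalized replicate activation at least 10% and every replicate at or above 10%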;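 further: 0% = median of on-plate neutral control wells and 100% = ellipticine 6 µM median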
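assay system = SV40-immortalized XiGFP fibroblast cells, line 68-5-11 | buffer or medium = DMEM plus 5-aza-dC sensitizer | doses = single-point pinned compound dosing | times = 3-day compound exposure, then 15 min fixation at room temperature | benchmarks = positive control ellipticine, 6 µM final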
RAD54 inh: RAD54 (human) branch migration inhibition; Q92698; RAD54 Holliday junction branch migration, FAM/BHQ fluorescence; inhibition, % at 10.4 µM; 0.14% of 360,000 active; AID 602329;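 active means mean normalized replicate activity at least 40 and at least half of replicates scoring 40 or more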;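 further: 0% = median of neutral control wells and 100% = median of positive control wells; inhibitors cause a drop in the FAM fluorescence signal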
An asterisk follows results filed as active; i = inactive; x = no result given. The list is not random: actives were taken first. Their share in the collection is about 0.73%.

Short forms: A = E-sel inducer; B = Yeast UUG start; C = RAD52 inh; D = Xi reactivation; E = RAD54 inh
COc1ccccc1S(=O)(=O)N[C@H]1CC[C@H](CC(=O)N2CCCCC2)O[C@@H]1CO
  A: 3	B: -30	C: 8	D: 0	E: -13
CN(C)c1ccc2c(c1)[C@H]1C[C@@H](CC(=O)NCc3cccc(F)c3)O[C@@H](CO)[C@H]1O2
  A: 0	B: x	C: -172	D: 0	E: 1
CO[C@H]1CN(C)C(=O)c2ccc(NS(=O)(=O)c3cccc(Cl)c3)cc2OC[C@@H](C)NC[C@H]1C
  A: 0	B: x	C: 23	D: 0	E: -17
COc1ccc2cc1Oc1ccc(cc1)CC1c3c(cc(OC)c4c3Oc3cc5c(cc3O4)CCNC5C2)CCN1C (stereo unspecified)
  A: x	B: 5	C: x	D: x	E: 91*
COc1ccc2cc1Oc1ccc(cc1)C[C@H]1c3c(cc(OC)c4c3Oc3c(ccc5c3[C@H](C2)N(C)CC5)O4)CCN1C
  A: x	B: 20	C: x	D: x	E: 74*
CCOc1ccc(C2NCCc3cc(OC)c(OC)cc32)cc1OC (stereo unspecified)
  A: 0	B: -33	C: -10	D: 0	E: -1
C[C@H]1CN([C@@H](C)CO)C(=O)Cc2cc(NS(C)(=O)=O)ccc2O[C@@H]1CN(C)S(=O)(=O)c1ccc(F)cc1
  A: 7	B: 10	C: -3	D: 0	E: -2
C[C@@H]1CN([C@H](C)CO)C(=O)Cc2cc(NS(=O)(=O)c3ccc(Cl)cc3)ccc2O[C@H]1CN(C)S(=O)(=O)c1ccc(F)cc1
  A: -1	B: 19	C: 11	D: -1	E: -6
C[C@H](CO)N1C[C@H](C)[C@@H](CN(C)S(=O)(=O)c2ccc(F)cc2)Oc2ccc(NS(C)(=O)=O)cc2CC1=O
  A: 311*	B: 3	C: 6	D: 0	E: 14
C[C@@H]1CN([C@H](C)CO)C(=O)Cc2cc(NS(=O)(=O)c3ccc(F)cc3)ccc2O[C@@H]1CN(C)S(=O)(=O)c1ccc(Cl)cc1
  A: 69*	B: -1	C: x	D: 0	E: 1
C[C@H]1CN([C@@H](C)CO)C(=O)Cc2cc(NS(=O)(=O)c3ccc(F)cc3)ccc2O[C@@H]1CN(C)S(=O)(=O)c1ccc(Cl)cc1
  A: 60*	B: 5	C: x	D: 0	E: 9
C[C@@H]1CN([C@@H](C)CO)C(=O)Cc2cc(NS(=O)(=O)c3ccc(F)cc3)ccc2O[C@@H]1CN(C)S(=O)(=O)c1ccc(Cl)cc1
  A: 102*	B: -12	C: x	D: 0	E: -2
CO[C@@H]1CN(C)C(=O)c2cc(NC(=O)c3ccno3)ccc2OC[C@H](C)N(S(C)(=O)=O)C[C@H]1C
  A: 0	B: x	C: -60	D: 0	E: x
C[C@@H]1CN([C@H](C)CO)C(=O)c2cc(C#C[C@@H](C)O)cnc2O[C@@H]1CN(C)C(=O)c1ccncc1
  A: 0	B: -10	C: 2	D: -1	E: 0
CO[C@H]1CN(C)C(=O)c2ccc(NC(C)=O)cc2OC[C@@H](C)N(Cc2nccs2)C[C@H]1C
  A: 0	B: -27	C: -11	D: 0	E: -4
C[C@@H]1CN([C@@H](C)CO)C(=O)Cc2cc(NS(=O)(=O)c3ccc(F)cc3)ccc2O[C@@H]1CN(C)S(=O)(=O)c1ccc(F)cc1
  A: 0	B: 17	C: -11	D: 0	E: 5
C[C@H]1CN([C@@H](C)CO)C(=O)Cc2cc(NS(=O)(=O)c3ccc(F)cc3)ccc2O[C@H]1CN(C)S(=O)(=O)c1ccc(Cl)cc1
  A: 198*	B: 4	C: x	D: 0	E: -2
C[C@@H]1CN([C@@H](C)CO)C(=O)Cc2cc(NS(=O)(=O)c3ccc(Cl)cc3)ccc2O[C@H]1CN(C)S(=O)(=O)c1ccc(F)cc1
  A: 0	B: 13	C: 1	D: -1	E: -9
C[C@@H]1CN([C@@H](C)CO)C(=O)Cc2cc(NS(=O)(=O)c3ccc(F)cc3)ccc2O[C@H]1CN(C)S(=O)(=O)c1ccc(Cl)cc1
  A: 34*	B: 12	C: x	D: 0	E: 0
CCNC(=O)[C@@H]1[C@@H](CO)[C@@H]2Cn3c(ccc(-c4ccc(F)cc4)c3=O)[C@@H]2N1CC1CC1
  A: -1	B: x	C: -6	D: 0	E: 1

Random excerpt: two records from the list.
Short forms: A = E-sel inducer; B = Yeast UUG start; C = RAD52 inh; D = Xi reactivation; E = RAD54 inh
CCNC(=O)[C@@H]1[C@@H](CO)[C@@H]2Cn3c(ccc(-c4ccc(F)cc4)c3=O)[C@@H]2N1CC1CC1
  A: -1	B: x	C: -6	D: 0	E: 1
CO[C@@H]1CN(C)C(=O)c2cc(NC(=O)c3ccno3)ccc2OC[C@H](C)N(S(C)(=O)=O)C[C@H]1C
  A: 0	B: x	C: -60	D: 0	E: x

Next section.
Short forms: A = E-sel inducer; B = Yeast UUG start; C = RAD52 inh; D = Xi reactivation; E = RAD54 inh
COCCNC(=O)C[C@@H]1CC[C@H](NC(=O)NC2CCCC2)[C@@H](CO)O1
  A: 1	B: -5	C: 8	D: 0	E: -1
Cn1c(=O)c(NC2CCCCC2)c2c3c(cccc31)C(=O)c1ccccc1-2
  A: 22	B: x	C: i	D: 116*	E: x
Cn1c(=O)c(NCCO)c2c3c(cccc31)C(=O)c1ccccc1-2
  A: x	B: -28	C: i	D: x	E: i
CO[C@@H]1CC[C@@H]2CCN(C)C(=O)C[C@H](c3ccccc3)CN(C)C(=O)c3cc(C#N)ccc3OC[C@@H]1O2
  A: 0	B: x	C: x	D: 0	E: x
